Among the data in patent publication US9884839B2, “Inhibitors of 17Beta-hydroxysteroid dehydrogenases type 1 and type 2” (ElexoPharm GmbH, priority 2014, dated 2018) are inhibition and IC50 values, retold here.

As a reminder, the inhibition is the drop in the measured response relative to a control, in per cent. What is called IC50 is the concentration that gives 50% inhibition. Read a low IC50 as higher potency.

Several values for one entry are separate records, joined by “and”; a condition that tells them apart may be missing. Identical values can stand only once.

The target in one test is T1, human 17β-HSD2 (Homo sapiens, UniProt P37059).
T1 sequence (P37059 1-387): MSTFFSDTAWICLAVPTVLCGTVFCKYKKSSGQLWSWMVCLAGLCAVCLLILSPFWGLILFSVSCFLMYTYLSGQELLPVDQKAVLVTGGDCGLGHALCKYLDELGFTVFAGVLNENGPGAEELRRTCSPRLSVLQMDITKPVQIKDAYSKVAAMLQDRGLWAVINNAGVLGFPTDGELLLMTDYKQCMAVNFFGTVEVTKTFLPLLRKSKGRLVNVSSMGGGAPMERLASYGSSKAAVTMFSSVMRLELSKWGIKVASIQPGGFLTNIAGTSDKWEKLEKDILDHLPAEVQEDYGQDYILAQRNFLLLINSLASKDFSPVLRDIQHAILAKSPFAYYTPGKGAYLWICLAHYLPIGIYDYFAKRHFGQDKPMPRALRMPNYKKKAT
Put plainly: Inhibition of human 17β-HSD2 (conversion of [3H]-E2 to E1).

Another test deals with T2, mouse 17β-HSD2 (Mus musculus, UniProt P51658).
T2 sequence (P51658 1-381): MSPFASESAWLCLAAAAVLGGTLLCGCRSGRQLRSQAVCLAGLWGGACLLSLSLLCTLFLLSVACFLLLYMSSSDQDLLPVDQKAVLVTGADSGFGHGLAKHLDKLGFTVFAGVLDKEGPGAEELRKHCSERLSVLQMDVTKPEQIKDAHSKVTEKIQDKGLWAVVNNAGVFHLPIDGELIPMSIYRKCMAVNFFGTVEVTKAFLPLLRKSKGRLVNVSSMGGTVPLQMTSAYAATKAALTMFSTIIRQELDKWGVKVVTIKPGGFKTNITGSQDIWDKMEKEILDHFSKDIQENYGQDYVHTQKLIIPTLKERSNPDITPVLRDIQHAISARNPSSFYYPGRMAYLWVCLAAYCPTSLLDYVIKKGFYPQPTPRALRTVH
Kind of test: Inhibition of mouse 17β-HSD2 (liver microsomal fraction). The note with it: IC50 m17β-HSD2, mouse liver microsomal fraction, E2 10 nM, NAD+.

The target of another test is T3, rat 17β-HSD2 (Rattus norvegicus, UniProt Q62730).
T3 construct: The pellet fractions containing the microsomal 17β-HSD2 were used for the determination of E1 formation; from tissue; host or cells: rat liver, microsomal fraction
T3 sequence (Q62730 1-381): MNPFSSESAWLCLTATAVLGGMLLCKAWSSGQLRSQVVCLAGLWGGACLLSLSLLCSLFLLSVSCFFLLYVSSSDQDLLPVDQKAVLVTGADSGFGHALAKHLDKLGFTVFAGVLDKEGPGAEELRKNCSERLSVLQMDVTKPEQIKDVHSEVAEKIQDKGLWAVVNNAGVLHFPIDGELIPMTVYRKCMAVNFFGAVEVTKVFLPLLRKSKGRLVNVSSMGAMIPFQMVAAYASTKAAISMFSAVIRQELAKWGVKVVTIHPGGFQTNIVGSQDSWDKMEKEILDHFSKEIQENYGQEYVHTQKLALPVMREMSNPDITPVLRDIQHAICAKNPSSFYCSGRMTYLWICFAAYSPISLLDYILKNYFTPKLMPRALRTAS
Kind of test: Inhibition of rat 17β-HSD2 (liver microsomal fraction). The note with it: read-out: % Inhibition r17β-HSD2. The test is classed as biochemical.

In the case of `Cc1ccc(C(=O)c2cc(F)c(F)c(O)c2F)s1` [Compound 73, (5-Methylthiophen-2-yl)(2,4,5-trifluoro-3-hydroxyphenyl)methanone], on human 17β-HSD2 (read-out: % inhibition h17β-HSD2 @ 100 nM), the inhibition at 0.1 µM is 56%.

Take `O=C(c1ccc(-c2cccc(NS(=O)(=O)c3ccc(Br)cc3OC(F)(F)F)c2)s1)c1cc(F)c(F)c(O)c1F`: the IC50 against mouse 17β-HSD2 is 90 nM and 12.5 nM.

For `O=C(c1cccc(O)c1)c1ccc(-c2ccc(F)cc2F)s1` [A, reference compound], at human 17β-HSD2 (read-out: % inhibition h17β-HSD2 @ 1 μM), the inhibition at 1 µM was determined as 35%.

With `COc1c(C)cc(-c2ccc(C(=O)c3c(F)ccc(O)c3F)s2)cc1Cl` [Compound 26, [5-(3-Chloro-4-methoxy-5-methyl-phenyl)-thiophen-2-yl]-(2,6-difluoro-3-hydroxy-phenyl)-methanone], the concentration for half-maximal inhibition (IC50) against human 17β-HSD2 was 7 nM.

Take `Cc1cc(-c2ccc(C(=O)c3c(F)ccc(O)c3F)s2)cc(Cl)c1O` [Compound 27, [5-(3-Chloro-4-hydroxy-5-methyl-phenyl)-thiophen-2-yl]-(2,6-difluoro-3-hydroxy-phenyl)-methanone]: on human 17β-HSD2, half-maximal inhibition (IC50) was put at 7 nM.

As to `Nc1cccc(-c2ccc(C(=O)c3c(F)ccc(O)c3F)s2)c1` [Compound 1, [5-(3-Aminophenyl)thiophen-2-yl](2,6-difluoro-3-hydroxyphenyl)methanone], the inhibition at […] on rat 17β-HSD2 turned out to be 48%.

`O=C(c1ccc(-c2cccc(NS(=O)(=O)c3ccccc3C(F)(F)F)c2)s1)c1cc(F)c(F)c(O)c1F` [Compound 38, N-{3-[5-(2,4,5-Trifluoro-3-hydroxybenzoyl)thiophen-2-yl]phenyl}-2-trifluoromethylbenzenesulfonamide]: the IC50 on mouse 17β-HSD2 worked out at 36 nM.
